Broadly, the Ki is the equilibrium dissociation constant of an inhibitor or competing ligand from its target.

Protein sequences, listed by entry. Tags and fused reporters are not part of them. Lines headed by an entry give the natural chain unless they say otherwise; changes in a name come on top.
UniProt P11229: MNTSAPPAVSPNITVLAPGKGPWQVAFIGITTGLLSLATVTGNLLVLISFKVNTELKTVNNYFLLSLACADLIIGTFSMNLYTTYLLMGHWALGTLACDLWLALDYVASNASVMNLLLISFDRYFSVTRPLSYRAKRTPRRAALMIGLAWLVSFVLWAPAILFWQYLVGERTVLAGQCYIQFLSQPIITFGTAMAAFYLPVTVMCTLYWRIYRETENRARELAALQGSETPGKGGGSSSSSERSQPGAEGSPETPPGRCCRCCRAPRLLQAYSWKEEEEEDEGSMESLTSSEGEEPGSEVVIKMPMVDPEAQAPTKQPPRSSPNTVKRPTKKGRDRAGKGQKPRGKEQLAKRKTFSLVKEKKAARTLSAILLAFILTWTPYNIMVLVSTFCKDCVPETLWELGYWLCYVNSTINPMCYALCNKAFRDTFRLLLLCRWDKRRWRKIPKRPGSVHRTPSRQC

In the assay the target is M1 muscarinic receptors (Homo sapiens, UniProt P11229). As to conditions: read-out: M1 Receptors Ki; M1 receptors expressed in A9 L cells.

Molecules are shown by their SMILES.

For the compound `CN1CCC=C(c2nsnc2OCCCCCCCCCCOc2nsnc2C2=CCCN(C)C2)C1` [(CH2)10], the Ki is 0.23 ± 0.1 nM.

Values taken from patent publication US6369081B1, “Muscarinic receptor agonists” (The University of Toledo, priority 1999, dated 2002).
